One may read the inhibition as the relative decrease from the control value, in per cent.

Protein sequences, listed by entry. Tags and fused reporters are not part of them.
UniProt P11940, whole entry, looked up: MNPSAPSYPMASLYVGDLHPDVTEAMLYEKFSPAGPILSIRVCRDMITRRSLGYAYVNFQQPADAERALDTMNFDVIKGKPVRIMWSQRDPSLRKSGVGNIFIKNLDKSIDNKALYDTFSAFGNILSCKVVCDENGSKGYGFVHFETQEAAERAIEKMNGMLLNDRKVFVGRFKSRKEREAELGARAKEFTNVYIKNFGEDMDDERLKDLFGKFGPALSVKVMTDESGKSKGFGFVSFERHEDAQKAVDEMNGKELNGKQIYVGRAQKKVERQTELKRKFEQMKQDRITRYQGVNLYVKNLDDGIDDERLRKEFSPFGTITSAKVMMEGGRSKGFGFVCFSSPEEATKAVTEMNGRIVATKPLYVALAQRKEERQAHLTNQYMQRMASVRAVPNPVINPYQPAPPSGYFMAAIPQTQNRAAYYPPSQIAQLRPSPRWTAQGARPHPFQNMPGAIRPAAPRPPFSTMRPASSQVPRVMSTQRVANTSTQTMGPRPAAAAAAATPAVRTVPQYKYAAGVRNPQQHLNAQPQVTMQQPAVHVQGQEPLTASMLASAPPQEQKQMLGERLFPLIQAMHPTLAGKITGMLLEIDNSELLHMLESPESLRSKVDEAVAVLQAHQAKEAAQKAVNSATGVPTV

The list shows a part of the results, in another mix than the full data. The source made the active and inactive calls. No stated cut-off is given here; in the data, active means inhibition above about 35% (passing the limit was not always enough); inactive means the rest.

The target in this assay is Polyadenylate-binding protein 1 (Homo sapiens) (UniProt P11940). As to the kind of experiment: PAM2 peptide displacement from PABP1 MLLE – biochemical, fluorescence polarization, FITC-PAM2, GST-MLLE, primary screen (AID 588489).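 Further: plate controls were DMSO wells with GST-MLLE for no effect and wells lacking GST-MLLE protein for full effect.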 The conditions noted are these: at 20 µM, active compounds read high. (In general: In fluorescence polarisation assays a small probe gives low polarisation when free and higher when bound to something large.)
`Cc1ccc(OP(=O)(Nc2ccccn2)Oc2ccc(C)cc2)cc1`: the inhibition was inactive: 1.67%. As for `Cc1ccccc1OP(=O)(Nc1ccccn1)Oc1ccccc1C`, the inhibition is inactive: 2.89%. Regarding `CC(NC(=O)COC(=O)C(O)(c1ccccc1)c1ccccc1)c1ccccc1` (centres undefined), the inhibition is inactive: 7.07%.

For the compound `CN(C)C(=O)Oc1noc2ccccc12`, the inhibition was inactive: -14.4%.

Turning to `O=c1c2cc([N+](=O)[O-])ccc2[nH]c2c([N+](=O)[O-])cc([N+](=O)[O-])cc12`, the inhibition was inactive: -80.3%. For `O=P(Nc1ccccn1)(c1ccc(Br)cc1)c1ccc(Br)cc1`, the inhibition is inactive: 10.5%. On to `CN(C)C1(CNC(=O)c2ccc(Cl)c(S(N)(=O)=O)c2)CCCCC1`, for which the inhibition is inactive: 10%. Consider `Nc1ccc(CCCCOc2ccccc2)cc1`, for which the inhibition is inactive: 9.88%. As for `COc1ccc(N)c([N+](=O)[O-])c1[N+](=O)[O-]`, the inhibition was inactive: -0.03%.

Turning to `O=P(Nc1nc2ccccc2s1)(c1ccccc1)c1ccccc1`, the inhibition is inactive: -4.26%. Under `C[C@H]1OP(=O)(Oc2ccccc2)[C@H](O)[C@H](O)[C@H]1N=[N+]=[N-]` (some centres undefined) stands inactive: -1.69%; under `O=[As](O)(c1ccccc1)c1ccc(O)cc1`, inactive: 2.87%; under `O=[N+]([O-])c1ccc(O)c(/C=N/Nc2ccc([N+](=O)[O-])cc2[N+](=O)[O-])c1`, inactive: 2.6%.

Take `CC(=O)NC(SC(=S)N(C)C)C(Cl)(Cl)Cl` (centres undefined): the inhibition is active: 44.5%. On to `O=[N+]([O-])c1ncn(CCn2cnc([N+](=O)[O-])n2)n1`, for which the inhibition was inactive: 10.1%. `O=C(OC1CN2CCC1CC2)c1cccc(Cl)c1` (centres undefined): the inhibition was inactive: 8.21%.

`Nc1ccc([As](=O)(O)c2ccc([N+](=O)[O-])cc2)cc1`: the inhibition was inactive: -11.6%. Regarding `C(Cc1nn[nH]n1)Cc1nn[nH]n1`, the inhibition is inactive: 5.57%.

For `CC(C)C(=O)NC(Sc1ccccc1)C(Cl)(Cl)Cl` (centres undefined), the inhibition was inactive: 0.19%. Regarding `O=P(Nc1nccs1)(c1ccccc1)c1ccccc1`, the inhibition was inactive: 3.79%. Consider `c1nnnn1CCn1cnnn1`, for which the inhibition was inactive: 9.23%. `O=P1(Nc2ccccn2)COc2ccccc2OC1`: the inhibition was inactive: 4.63%. As for `CCC1=CC2Cc3nc4ccc(Cl)cc4c(N)c3C(C1)C2` (centres undefined), the inhibition is inactive: -7.98%. As for `CCOP(=O)(NC(=NC(C)c1ccccc1)NC(C)c1ccccc1)OCC` (centres undefined), the inhibition is inactive: 1.73%. In the case of `CN(CCCl)Cc1cc(Cl)c(NC2=NCCN2)c(Cl)c1`, the inhibition was inactive: -1.73%. As to `CCOP(=O)(Nc1ccc(C)cn1)OCC`, the inhibition was inactive: -9.24%.

Turning to `O=P1(N(CCCl)CCCl)NCCC(C(F)(F)F)O1` (centres undefined), the inhibition is inactive: -3.71%.

As to `Clc1n[nH]nc1-c1nn[nH][15n]1`, the inhibition was inactive: 5.8%.

As for `CC(C)(C)C(=O)NC(Sc1ncccn1)C(Cl)(Cl)Cl` (centres undefined), the inhibition is inactive: 40%.

Turning to `COc1ccccc1CNC(=O)COC(=O)C(O)(c1ccccc1)c1ccccc1`, the inhibition was inactive: -1.11%. Take `CC(C)/C=N\N=C(\N)N[N+](=O)[O-]`: the inhibition was inactive: 12.3%. Turning to `CN(C(=O)Cc1ccc(Cl)c(Cl)c1)[C@@H]1CCCC[C@H]1N1CCCC1`, the inhibition is inactive: -1.78%.

In the case of `CC1(CBr)Cn2c(nc3ccccc3c2=O)S1` (centres undefined), the inhibition is inactive: 20.3%.

Take `Cc1nn(-c2ccccc2)c2c1P(=O)(N1CCOCC1)N(C)C(c1ccccc1)=N2` (centres undefined): the inhibition is inactive: 1.96%. Turning to `CC1CCC(C(C)C)C(OP(=O)(Nc2ccccn2)c2ccccc2)C1` (centres undefined), the inhibition is inactive: 1.48%. With `Cc1ccc(C(=O)OC2CN3CCC2CC3)cc1` (centres undefined), the inhibition is inactive: -6.33%. With `CN(C)C1(CNC(=O)c2ccc(S(C)(=O)=O)cc2)CCCCC1`, the inhibition is inactive: 0.35%.

For the compound `O=C(/C=C/c1ccccc1)OC1CN2CCC1CC2` (centres undefined), the inhibition was inactive: -4.78%. For the compound `CCCC1OP(=O)(Nc2ccccc2)OCC1CC` (centres undefined), the inhibition was inactive: 0.51%. For the compound `Cc1ccc(S(=O)(=O)N(CCCN)CCCc2c(C)nc(N)[nH]c2=O)cc1`, the inhibition was inactive: 3.41%.

`O=P1(Nc2ncccn2)COc2ccccc2OC1`: the inhibition was inactive: -0.69%. Take `Nc1cccc([As](=O)(O)c2ccccc2)c1`: the inhibition is inactive: -5.16%. Consider `O=P1(Nc2ccc(Br)cn2)COc2ccccc2OC1`, for which the inhibition is inactive: -8.83%. On to `NS(=O)(=O)c1cccc(NC(=O)COC(=O)C(O)(c2ccccc2)c2ccccc2)c1`, for which the inhibition is inactive: -6.88%. Regarding `Cc1ccc(OCC(=O)OC2CN3CCC2CC3)cc1` (centres undefined), the inhibition was inactive: 7.63%. As for `O=[As](O)(c1cccs1)c1cccs1`, the inhibition was inactive: -1.9%.

Consider `CCOP1(=S)c2c(C)nn(CCC#N)c2N=C(c2ccccc2F)N1C` (centres undefined), for which the inhibition is inactive: 14.5%. With `O=P(Nc1nccs1)(c1ccccc1)c1nc2ccccc2s1` (centres undefined), the inhibition is inactive: 17.4%.

Take `O=P(Nc1nccs1)(Oc1ccccc1)Oc1ccccc1`: the inhibition is inactive: -7.62%.

With `CS(=O)(=O)c1cc([N+](=O)[O-])c2no[n+]([O-])c2c1`, the inhibition was inactive: 15.2%. For `Nc1ccccc1[As](=O)(O)c1ccccc1`, the inhibition is inactive: 9.53%. For the compound `O=C(O)COc1ccc([As](=O)(O)O)cc1[N+](=O)[O-]`, the inhibition was inactive: -5.06%.

On to `NC(=O)Nc1ccc([As](=O)(O)O)cc1`, for which the inhibition was inactive: -4.37%. As to `N#CCCN(C(=O)COC(=O)C(O)(c1ccccc1)c1ccccc1)c1ccc(F)cc1`, the inhibition was inactive: -2.51%. For the compound `CCOP1(=S)c2c(C)nn(CCC#N)c2N=C(c2ccc(F)cc2)N1C` (centres undefined), the inhibition was inactive: 28.2%. With `CN(C(=O)Cc1ccccc1)[C@@H]1CC[C@]2(CCCO2)C[C@H]1N1CCCC1`, the inhibition was inactive: -12.8%. With `CN(C)C(=O)c1cc([N+](=O)[O-])cc2c1-c1c(cc([N+](=O)[O-])cc1[N+](=O)[O-])C2=O`, the inhibition was inactive: 8.68%. For `O=[N+]([O-])c1ccc2c(c1)nnn2O`, the inhibition is inactive: -1.32%. Under `CN(C(=O)Cc1ccc(Cl)c(Cl)c1)[C@H]1CC[C@@]2(CCCO2)C[C@@H]1N1CCCC1` stands inactive: -11.2%. Under `O=C(OC1CN2CCC1CC2)c1ccc(Cl)cc1` (centres undefined) stands inactive: -1.35%; under `COc1cc(C(=O)NCC2(N3CCOCC3)CCCCC2)cc(Cl)c1OC(C)C`, inactive: -6.64%; under `O=[As](O)(O)c1cccnc1`, inactive: 3.45%. `CS(=O)(=O)c1ccc(Cl)c(NC(=O)COC(=O)C(O)(c2ccccc2)c2ccccc2)c1`: the inhibition was inactive: -11%. For `O=[As](O)(c1cccc(O)c1)c1cccc(O)c1`, the inhibition was inactive: -23.8%.

These data come from PubChem BioAssay AID588489 (Sanford-Burnham Center for Chemical Genomics, 2011).
